Results reported in PMC3366963, “Nucleolin Inhibits G4 Oligonucleotide Unwinding by Werner Helicase” (PLoS ONE, 2012).

The chains behind the UniProt entries cited, without tags or fusion partners.
UniProt Q14191, whole entry: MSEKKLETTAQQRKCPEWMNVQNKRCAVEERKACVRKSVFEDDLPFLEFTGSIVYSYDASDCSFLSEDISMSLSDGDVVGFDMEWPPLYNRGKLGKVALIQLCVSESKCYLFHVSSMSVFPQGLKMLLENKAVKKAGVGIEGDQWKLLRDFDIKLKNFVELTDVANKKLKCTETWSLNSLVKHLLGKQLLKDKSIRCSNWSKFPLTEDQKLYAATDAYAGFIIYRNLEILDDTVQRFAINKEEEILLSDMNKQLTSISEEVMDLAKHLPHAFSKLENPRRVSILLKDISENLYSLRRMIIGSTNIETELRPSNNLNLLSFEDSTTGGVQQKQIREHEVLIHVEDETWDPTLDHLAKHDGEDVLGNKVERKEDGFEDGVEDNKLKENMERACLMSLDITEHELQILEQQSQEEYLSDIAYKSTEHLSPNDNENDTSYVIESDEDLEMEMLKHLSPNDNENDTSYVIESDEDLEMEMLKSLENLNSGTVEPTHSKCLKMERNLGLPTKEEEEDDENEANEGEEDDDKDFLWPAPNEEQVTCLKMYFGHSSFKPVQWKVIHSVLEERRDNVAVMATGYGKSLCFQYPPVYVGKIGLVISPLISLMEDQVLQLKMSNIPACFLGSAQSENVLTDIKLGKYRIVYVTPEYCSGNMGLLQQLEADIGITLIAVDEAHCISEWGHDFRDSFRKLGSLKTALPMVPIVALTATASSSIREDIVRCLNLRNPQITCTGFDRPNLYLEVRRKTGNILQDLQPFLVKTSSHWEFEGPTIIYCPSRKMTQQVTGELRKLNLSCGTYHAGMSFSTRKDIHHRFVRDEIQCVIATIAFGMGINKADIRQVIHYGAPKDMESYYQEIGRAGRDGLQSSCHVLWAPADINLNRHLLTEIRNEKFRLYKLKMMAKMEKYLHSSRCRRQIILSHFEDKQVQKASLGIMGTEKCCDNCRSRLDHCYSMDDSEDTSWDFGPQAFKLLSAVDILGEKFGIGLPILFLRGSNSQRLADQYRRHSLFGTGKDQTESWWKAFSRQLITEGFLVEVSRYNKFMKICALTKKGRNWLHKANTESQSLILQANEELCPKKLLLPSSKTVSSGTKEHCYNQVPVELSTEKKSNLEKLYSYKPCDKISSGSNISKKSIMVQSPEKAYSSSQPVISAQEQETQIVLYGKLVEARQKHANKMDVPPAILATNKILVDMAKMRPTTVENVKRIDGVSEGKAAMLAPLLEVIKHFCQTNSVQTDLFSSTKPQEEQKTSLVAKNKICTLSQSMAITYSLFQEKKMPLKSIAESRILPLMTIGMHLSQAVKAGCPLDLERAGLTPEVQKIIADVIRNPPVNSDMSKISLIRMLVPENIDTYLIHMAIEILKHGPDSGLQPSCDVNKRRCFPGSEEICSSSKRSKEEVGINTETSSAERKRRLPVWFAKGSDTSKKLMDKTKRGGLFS

Target: His6-WRN, full length purified (human, UniProt Q14191)
Assay: cell-based or functional assay

B1: GST-ΔN-NCL (domain or fragment, human, UniProt P19338 284-707, looked up)
chain: MAKQKAAPEAKKQKVEGTEPTTAFNLFVGNLNFNKSAPELKTGISDVFAKNDLAVVDVRIGMTRKFGYVDFESAEDLEKALELTGLKVFGNEIKLEKPKGKDSKKERDARTLLAKNLPYKVTQDELKEVFEDAAEIRLVSKDGKSKGIAYIEFKTEADAEKTFEEKQGTEIDGRSISLYYTGEKGQNQDYRGGKNSTWSGESKTLVLSNLSYSATEETLQEVFEKATFIKVPQNQNGKSKGYAFIEFASFEDAKEALNSCNKREIEGRAIRLELQGPRGSPNARSQPSKTLFVKGLSEDTTEETLKESFDGSVRARIVTDRETGSSKGFGFVDFNSEEDAKAAKEAMEDGEIDGNKVTLDWAKPKGEGGFGGRGGGRGGFGGRGGGRGGRGGFGGRGRGGFGGRGGFRGGRGGGGDHKPQGKKT
  inhibition of WRN helicase unwinding of a 22 base pair partial duplex fork substrate, ΔN-NCL at a molar ratio of 25:1 vs WRN: ~50%
